This assay deals with T1, P2X purinoceptor 3 (Homo sapiens, UniProt P56373).
T1 sequence (P56373 whole entry): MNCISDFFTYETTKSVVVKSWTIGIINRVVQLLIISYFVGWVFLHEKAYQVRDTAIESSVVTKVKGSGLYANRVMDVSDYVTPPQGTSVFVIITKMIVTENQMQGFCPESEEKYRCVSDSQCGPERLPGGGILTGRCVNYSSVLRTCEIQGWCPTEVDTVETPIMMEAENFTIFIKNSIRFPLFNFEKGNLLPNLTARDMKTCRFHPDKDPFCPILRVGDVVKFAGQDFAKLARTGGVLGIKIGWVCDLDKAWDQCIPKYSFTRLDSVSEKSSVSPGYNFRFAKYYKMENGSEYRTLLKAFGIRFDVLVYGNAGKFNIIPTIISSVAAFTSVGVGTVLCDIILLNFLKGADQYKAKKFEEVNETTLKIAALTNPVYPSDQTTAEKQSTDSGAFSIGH
In words: Evaluation of In Vitro Biological Activity. The method, then:
Each well was added with 10 μL of test compound (which was dissolved in DMSO at a concentration of 10 mM and serially diluted with buffer) or vehicle, and then was left to equilibrate for 30 min at room temperature.

What is called IC50 is the concentration at which inhibition is half-maximal. A higher IC50 goes with weaker potency in that assay. In the case of `COC(=O)N1CCO[C@@H](Cc2c(-c3c(F)cc(-n4cccn4)cc3F)nc3cc(C)ccn23)C1` [US20240034729, Compound 50], the IC50 was below 0.01 µM.

The record behind these values is BindingDB's records for patent US20240034729 (Wuhan Ll Science and Technology Development, 2024).
